Reference: ChEMBL document CHEMBL3779868, “Tetrahydroprotoberberine alkaloids with dopamine and σ receptor affinity” (Bioorg Med Chem, 2016)
pKi: −log10 of the molar value.

By UniProt entry, the sequences of proteins in these tests, tags left out.
UniProt P14416, whole entry: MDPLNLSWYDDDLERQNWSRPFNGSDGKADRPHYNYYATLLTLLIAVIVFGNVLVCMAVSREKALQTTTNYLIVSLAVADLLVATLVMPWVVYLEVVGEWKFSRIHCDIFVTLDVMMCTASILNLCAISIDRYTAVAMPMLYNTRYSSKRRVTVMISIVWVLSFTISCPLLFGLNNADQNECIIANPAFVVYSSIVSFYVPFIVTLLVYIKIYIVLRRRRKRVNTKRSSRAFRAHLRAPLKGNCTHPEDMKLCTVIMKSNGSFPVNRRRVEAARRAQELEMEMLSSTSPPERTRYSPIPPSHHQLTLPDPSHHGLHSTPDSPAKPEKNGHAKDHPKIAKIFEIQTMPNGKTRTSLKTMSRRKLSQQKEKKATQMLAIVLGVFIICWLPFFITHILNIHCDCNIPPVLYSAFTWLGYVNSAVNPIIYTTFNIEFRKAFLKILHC
UniProt P35462, whole entry: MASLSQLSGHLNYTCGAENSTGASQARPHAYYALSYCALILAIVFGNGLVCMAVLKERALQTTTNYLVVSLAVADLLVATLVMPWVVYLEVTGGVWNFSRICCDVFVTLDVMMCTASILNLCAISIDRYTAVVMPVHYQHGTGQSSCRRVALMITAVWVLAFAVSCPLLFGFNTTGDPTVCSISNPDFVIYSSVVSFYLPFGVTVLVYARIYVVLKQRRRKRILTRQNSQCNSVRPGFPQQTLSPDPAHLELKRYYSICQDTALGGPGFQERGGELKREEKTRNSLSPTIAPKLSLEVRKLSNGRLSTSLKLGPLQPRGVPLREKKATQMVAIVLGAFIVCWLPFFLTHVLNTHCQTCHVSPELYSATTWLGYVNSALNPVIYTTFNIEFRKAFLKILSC

Key:
[1] = target: D(2) dopamine receptor (Homo sapiens, UniProt P14416); test: Displacement of [3H]N-methylspiperone from human dopamine D2 receptor by PDSP assay
[2] = target: D(3) dopamine receptor (Homo sapiens, UniProt P35462); test: Displacement of [3H]N-methylspiperone from human dopamine D3 receptor by PDSP assay

Question: `COc1cc2c(cc1O)C1Cc3ccc(OCC4CC4)c(OC)c3CN1CC2` (configuration not stated) was tested. Which pKi [1] did it give?
Answer: 7.27

Question: And the pKi [2]?
Answer: 7.27
